Molecular target: Human recombinant cathepsin S (Homo sapiens (Human), UniProt P25774)
Test: In vitro cathepsin Ki inhibition measurements, cathepsin S
Assay type: biochemical
Settings: relative to prior art compound (38)
Protocol: Stock solutions of substrate or inhibitor were made up to 10 mM in 100% dimethylsulfoxide (DMSO) (Rathburns, Glasgow, U.K.) and diluted as appropriately required. In all cases the DMSO concentration in the assays was maintained at less than 1% (vol./vol.). The equilibrium inhibition constants (Ki^ss) for each compound were measured under steady-state conditions monitoring enzyme activity as a function of inhibitor concentration. The values were calculated on the assumption of pure competitive behaviour (Cornish-Bowden, A. Fundamentals of enzyme kinetics Portland Press; 1995, 93-128.). […]
The apparent inhibition constant (Ki) for each compound was determined on the basis that inhibition was reversible and occurred by a pure-competitive mechanism. The Ki values were calculated, from the dependence of enzyme activity as a function of inhibitor concentration, by direct regression analysis (Prism v 3.02) using Equation 2 (Cornish-Bowden, A., 1995.).
In situations where the apparent dissociation constant (Ki^app) approached the enzyme concentrations, the Ki^app values were calculated using a quadratic solution in the form described by Equation 3 (Morrison, J. F. Trends Biochem. Sci., 7, 102-105, 1982; Morrison, J. F. Biochim. Biophys. Acta. 185, 269-286, 1969: Stone, S. R. and Hofsteenge, J. Biochemistry, 25, 4622-4628, 1986). […]

Sequences of proteins named here, by UniProt entry; tags and fusion partners are left off. Residues count along the entry.
UniProt P25774, 115-331: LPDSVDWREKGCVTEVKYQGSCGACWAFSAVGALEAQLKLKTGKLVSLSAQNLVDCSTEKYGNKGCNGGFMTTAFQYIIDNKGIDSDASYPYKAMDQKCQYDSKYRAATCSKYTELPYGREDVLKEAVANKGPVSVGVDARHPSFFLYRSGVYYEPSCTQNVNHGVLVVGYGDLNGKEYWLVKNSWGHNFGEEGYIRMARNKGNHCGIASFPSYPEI

With `O=C(N[C@H](C(=O)N1CC[C@H]2OCC(=O)[C@H]21)C1CCCCC1)c1ccccc1` [Compound 1] the “improvement in in vitro potency against human cathepsin S” value was 2.5 fold.

Reference: patent US8552202B2, “Furo[3, 2-B] pyrrol-3-ones as cathespin S inhibitors” (Amura Therapeutics Limited, priority 2008, dated 2013)
